Data taken from ChEMBL document CHEMBL4229443, “Activation studies with amines and amino acids of the α-carbonic anhydrase from the pathogenic protozoan Trypanosoma cruzi” (Bioorg Med Chem, 2018).

Key:
[1] = molecular target: T1, Carbonic anhydrase-like protein, putative (Trypanosoma cruzi (strain CL Brener)) (UniProt Q4CVY4); assay: Activation of Trypanosoma cruzi CA preincubated for 15 mins followed by CO2 addition by stopped-flow assay
T1 sequence (whole entry): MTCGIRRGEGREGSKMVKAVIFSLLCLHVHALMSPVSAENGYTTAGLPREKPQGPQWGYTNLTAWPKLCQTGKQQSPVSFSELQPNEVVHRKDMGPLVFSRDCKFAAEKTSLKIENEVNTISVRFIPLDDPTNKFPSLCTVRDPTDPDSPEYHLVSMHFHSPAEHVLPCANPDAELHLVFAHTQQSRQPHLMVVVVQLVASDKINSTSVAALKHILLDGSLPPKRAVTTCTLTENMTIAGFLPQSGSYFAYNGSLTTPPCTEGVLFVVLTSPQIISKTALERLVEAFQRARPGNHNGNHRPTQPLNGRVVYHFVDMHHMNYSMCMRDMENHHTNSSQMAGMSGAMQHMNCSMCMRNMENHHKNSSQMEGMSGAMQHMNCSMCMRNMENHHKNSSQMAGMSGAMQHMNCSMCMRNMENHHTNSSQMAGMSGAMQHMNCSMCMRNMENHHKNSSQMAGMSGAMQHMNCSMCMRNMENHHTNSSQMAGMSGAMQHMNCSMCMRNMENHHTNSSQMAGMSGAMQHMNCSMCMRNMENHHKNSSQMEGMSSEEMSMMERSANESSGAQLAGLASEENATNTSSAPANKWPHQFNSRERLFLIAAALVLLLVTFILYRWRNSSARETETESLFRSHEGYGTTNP
Procedure, shortened: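 Recombinant TcCA pre-incubated 15 min at room temperature with activator (10 mM water stocks diluted down to 1 nM in assay buffer). Stopped-flow CO2 hydration (CO2 1.7–17 mM) in 10 mM Hepes pH 7.5 with 0.1 M Na2SO4, 25 °C, 10 s. Phenol red 0.2 mM read at 557 nm. Initial 5–10% of ≥6 traces used, uncatalyzed rate subtracted. KA fitted by competitive steady-state equation; mean of three.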

Leishmania chagasi = assay: Activation of Leishmania donovani chagasi CA preincubated for 15 mins followed by CO2 addition by stopped-flow assay

KA [1] | KA (Leishmania chagasi) | SMILES
6.39 µM | 3.95 µM | N[C@H](Cc1ccccc1)C(=O)O
12.1 µM | 9.16 µM | N[C@@H](Cc1ccccc1)C(=O)O
